Experiment [1] deals with Delta-type opioid receptor (Homo sapiens) (UniProt P41143). Briefly: Activity was evaluated in human delta opioid receptors transfected with CHO cells by [35S]GTP-gamma-S, assay. (In general: GTPγS resists hydrolysis and so accumulates on activated G proteins.)
Experiment [2] has as its target Kappa-type opioid receptor (Homo sapiens) (UniProt P41145). The experiment can be described thus: Activity was evaluated in human kappa opioid receptors transfected with CHO cells by [35S]GTP-gamma-S, assay.

Sequences of proteins named here, by UniProt entry; tags and fusion partners are left off.
UniProt P41143, whole entry: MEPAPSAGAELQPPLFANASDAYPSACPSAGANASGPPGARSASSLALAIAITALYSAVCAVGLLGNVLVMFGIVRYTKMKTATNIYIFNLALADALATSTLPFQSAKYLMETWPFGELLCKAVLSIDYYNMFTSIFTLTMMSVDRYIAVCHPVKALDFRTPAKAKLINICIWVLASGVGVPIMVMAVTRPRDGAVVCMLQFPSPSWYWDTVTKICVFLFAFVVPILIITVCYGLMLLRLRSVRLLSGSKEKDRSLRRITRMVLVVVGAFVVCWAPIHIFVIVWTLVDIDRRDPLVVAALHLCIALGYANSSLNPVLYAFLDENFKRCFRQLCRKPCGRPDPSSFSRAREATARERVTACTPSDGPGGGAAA
UniProt P41145, whole entry: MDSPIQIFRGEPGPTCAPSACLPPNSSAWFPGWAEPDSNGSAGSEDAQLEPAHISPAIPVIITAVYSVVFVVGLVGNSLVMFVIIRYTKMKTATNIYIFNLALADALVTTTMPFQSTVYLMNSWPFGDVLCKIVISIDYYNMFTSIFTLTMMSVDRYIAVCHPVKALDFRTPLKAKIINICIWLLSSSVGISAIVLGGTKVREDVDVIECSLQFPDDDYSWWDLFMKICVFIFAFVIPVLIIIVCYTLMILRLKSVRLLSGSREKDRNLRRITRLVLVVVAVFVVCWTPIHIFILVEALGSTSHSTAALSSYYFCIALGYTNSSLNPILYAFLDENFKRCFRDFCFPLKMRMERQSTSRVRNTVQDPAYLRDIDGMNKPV

Stimulation data for 2 compounds are collected here from ChEMBL document CHEMBL1132136, “Ring constrained analogues of the orvinols: the furanomorphides” (1999).

Regarding `CO[C@@]12CCC3(C[C@H]1[C@@](C)(O)C(C)(C)C)[C@H]1Cc4ccc(O)c5c4C3(CCN1C)[C@H]2O5`, the Stimulation in experiment [1] turned out to be 79%; in experiment [2], 50%.

As to `CN1CC[C@]23c4c5ccc(O)c4O[C@H]2[C@@]24CC[C@@]3(C[C@H]2C(C)(C)C(C)(C)O4)C1C5`, the values for the Stimulation in experiment [1] and in experiment [2] were 88% and 59%, respectively.
